According to PubChem BioAssay AID1203 (The Scripps Research Institute Molecular Screening Center, 2008):
Only a part is listed here, and it is no random draw. Activity calls are given as the source filed them.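 How the source made its calls: active means activation above the mean across all tested compounds plus 3 SD, cutoff set per campaign (cut at about 5.5% in these data); inactive means the rest.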

Assay: Hsp70 promoter-driven reporter induction – cell-based, HeLa, Hsp70 promoter luciferase, luminescence, 10 µM, primary screen (AID 1203);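 further: 100% = MG132 at 30 µM as the positive control and 0% = DMSO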
Conditions: at 10 µM, active compounds read high, scaled: vehicle 0, proteasome-inhibitor control 100%

| Compound | activation |
| --- | --- |
| O=C(NC(Sc1ccncn1)C(Cl)(Cl)Cl)c1ccccc1 (stereo not given) | inactive: 0.11% |
| Cc1c2non([O-])c-2c(C)[n+](=O)[n+]1[O-] | inactive: -0.02% |
| Oc1ccccc1CNc1ccccn1 | inactive: 0.34% |
| CC(C)CC(=O)NC(Sc1ccc(Cl)cc1)C(Cl)(Cl)Cl (stereo not given) | inactive: -0.11% |
| Cc1ccc(N/C(=N/P(=O)(N2CCOCC2)N2CCOCC2)N2CCOCC2)cc1 | inactive: -0.27% |
| NC(=O)c1cc([N+](=O)[O-])cc([N+](=O)[O-])c1N | inactive: -0.27% |
| CN1CCCC(OC(=O)C(c2ccccc2)c2ccccc2)C1 (stereo not given) | inactive: -0.48% |
| Clc1ccc(Cl)c(NC2=NCC(CBr)S2)c1 (stereo not given) | inactive: -0.26% |
| COc1ccccc1OP(=O)(Nc1ccc(C)cn1)Oc1ccccc1OC | inactive: -0.07% |
| CCN(N=Nc1nonc1N)c1nonc1N | inactive: -0.24% |
| Cc1cc(SC(NC(=O)c2ccc(F)cc2)C(Cl)(Cl)Cl)ncn1 (stereo not given) | inactive: -0.28% |
| CCOP(=O)(Nc1ccccc1)OCC | inactive: -0.23% |
| O=[N+]([O-])c1ncn(CCn2ncnc2[N+](=O)[O-])n1 | inactive: 0.45% |
| CCN(/C(=N/P(=O)(N1CCOCC1)N1CCOCC1)N1CCOCC1)c1ccc(OC)cc1 | inactive: -0.2% |
| CC1CCN(C(=O)Oc2c(Cl)cc(Cl)c3cccnc23)CC1 | inactive: 0.07% |
| CN(C)C(=O)OCCc1n(C)cc[n+]1C | inactive: -0.33% |
| CC(C)=N/N=C(\N)N[N+](=O)[O-] | inactive: -0.45% |
| COc1ccc(C2=NCC(CBr)S2)cc1 (stereo not given) | inactive: -0.13% |
| O=[N+]([O-])c1cc([N+](=O)[O-])c(CCNc2ccccc2)c([N+](=O)[O-])c1 | inactive: -0.33% |
| CCc1nc2c(n1)c1c(non1O)c1c2no[n+]1[O-] | inactive: 0.67% |
| Cc1ccc(NP(=O)(Oc2ccccc2)Oc2ccccc2)nc1 | inactive: 0.18% |
| CC(=O)N1C2C3N(C(C)=O)C1C1N(C(C)=O)C(C(N1C(C)=O)N3C(C)=O)N2C(C)=O | inactive: 0.06% |
| O=[N+]([O-])c1cccc2n[nH]nc12 | inactive: 0.06% |
| O=P(Nc1nccs1)(c1ccccc1)c1ccccc1 | inactive: -0.45% |
| CC(C)C(=O)NC(Sc1ccccc1)C(Cl)(Cl)Cl (stereo not given) | inactive: -0.31% |
| c1nnnn1CCn1cnnn1 | inactive: -0.27% |
| CC(=O)NC(SC(=S)N(C)C)C(Cl)(Cl)Cl (stereo not given) | inactive: 0.32% |

| Compound | activation |
| --- | --- |
| O=C(OC1CN2CCC1CC2)c1cccc(Cl)c1 (stereo not given) | inactive: -0.49% |
| C(Cc1nn[nH]n1)Cc1nn[nH]n1 | inactive: -0.12% |
| O=P(Nc1ccccn1)(c1ccc(Br)cc1)c1ccc(Br)cc1 | inactive: -0.24% |
| CCC(=O)N1C2C3N(C(=O)CC)C1C1N(C(=O)CC)C(C(N1C(=O)CC)N3C(=O)CC)N2C(=O)CC | inactive: 0.01% |
| CC(=O)NC(SC(=S)N(CC(C)C)CC(C)C)C(Cl)(Cl)Cl (stereo not given) | inactive: -0.35% |
| Cc1ccc(OP(=O)(Nc2ccccn2)Oc2ccc(C)cc2)cc1 | inactive: -0.32% |
| COC(=O)c1cc2c(s1)N=C(c1ccccc1)N(C)P2(=O)N1CCOCC1 (stereo not given) | inactive: -0.53% |
| O=c1c2cc([N+](=O)[O-])ccc2[nH]c2c([N+](=O)[O-])cc([N+](=O)[O-])cc12 | inactive: -0.42% |
| CCOC(=O)NC(Sc1ccccc1)C(Cl)(Cl)Cl (stereo not given) | inactive: -0.35% |
| c1ccc(-c2nn[nH]n2)c(-c2nn[nH]n2)c1 | inactive: -0.14% |
| O=C(NC1CCS(=O)(=O)C1)NP(=S)(Oc1ccccc1)Oc1ccccc1 (stereo not given) | inactive: 0% |
| CCNC(=S)/N=C(\N)N[N+](=O)[O-] | inactive: 0.8% |
| CC(=O)Nc1ccc(Oc2c([N+](=O)[O-])cc([N+](=O)[O-])cc2[N+](=O)[O-])cc1 | inactive: -0.17% |
| CCOc1ccc(C2=NCC(CBr)S2)cc1 (stereo not given) | inactive: -0.2% |
| O=P1(Nc2nc3ccc(Cl)cc3s2)COc2ccccc2O1 (stereo not given) | inactive: -0.29% |
| CC(C)(C)C(=O)NC(Sc1ccccc1)C(Cl)(Cl)Cl (stereo not given) | inactive: -0.08% |
| Cc1ccc(NCCc2c([N+](=O)[O-])cc([N+](=O)[O-])cc2[N+](=O)[O-])cc1 | inactive: 0.02% |
| CCOP(=O)(Nc1cccc2ccccc12)OCC | inactive: -0.43% |
| COc1cc(C2NCCC3(OCCO3)C2(C)C)cc(OC)c1OC (stereo not given) | inactive: -0.14% |
| COc1cc(C(=O)NCC2(N3CCOCC3)CCCCC2)cc(Cl)c1OC(C)C | inactive: 0.15% |
| Cc1cccc(OCC(=O)OC2CN3CCC2CC3)c1 (stereo not given) | inactive: -0.16% |
| CCOP1(=S)c2c(C)nn(CCC#N)c2N=C(c2ccc(F)cc2)N1C (stereo not given) | inactive: -0.3% |
| O=[N+]([O-])c1ccc2c(c1)nnn2O | inactive: -0.04% |
| O=P(Nc1nccs1)(Oc1ccccc1)Oc1ccccc1 | inactive: 0.39% |
| O=P(Nc1nccs1)(c1ccccc1)c1nc2ccccc2s1 (stereo not given) | inactive: 0.81% |
| CCOP1(=S)c2c(C)nn(CCC#N)c2N=C(c2ccccc2F)N1C (stereo not given) | inactive: -0.06% |
| O=P1(Nc2ncccn2)COc2ccccc2OC1 | inactive: -0.13% |

| Compound | activation |
| --- | --- |
| Cc1ccc(OCC(=O)OC2CN3CCC2CC3)cc1 (stereo not given) | inactive: -0.32% |
| O=P1(Nc2ccc(Br)cn2)COc2ccccc2OC1 | inactive: -0.59% |
| CC1CCC(C(C)C)C(OP(=O)(Nc2ccccn2)c2ccccc2)C1 (stereo not given) | inactive: -0.31% |
| Cc1nn(-c2ccccc2)c2c1P(=O)(N1CCOCC1)N(C)C(c1ccccc1)=N2 (stereo not given) | inactive: -0.27% |
| CN(C)C1(CNC(=O)c2ccc(S(C)(=O)=O)cc2)CCCCC1 | inactive: 0.05% |
| CN(C(=O)Cc1ccc(Cl)c(Cl)c1)[C@@H]1CCCC[C@H]1N1CCCC1 | inactive: 0.5% |
| CC(C)/C=N\N=C(\N)N[N+](=O)[O-] | inactive: -0.16% |
| CC1(CBr)Cn2c(nc3ccccc3c2=O)S1 (stereo not given) | inactive: -0.28% |
| O=P1(Nc2ccccn2)COc2ccccc2OC1 | inactive: -0.26% |
| Clc1n[nH]nc1-c1nn[nH][15n]1 | inactive: 0.23% |
| CCC(C)N(CC(C)C)C(=S)SC(NC(C)=O)C(Cl)(Cl)Cl (stereo not given) | inactive: -0.24% |
| COP1(=S)c2c(C)nn(CCC#N)c2N=C(c2ccc(F)cc2)N1C (stereo not given) | inactive: 0.02% |
| O=C(COc1ccccc1)OC1CN2CCC1CC2 (stereo not given) | inactive: -0.19% |
| Cc1cc(SC(NC=O)C(Cl)(Cl)Cl)ncn1 (stereo not given) | inactive: -0.41% |
| O=P(Nc1ccccn1)(c1cccc2ccccc12)c1cccc2ccccc12 | inactive: -0.36% |
| Cc1cc(SC(NC(=O)c2ccccc2)C(Cl)(Cl)Cl)nc(C(C)C)n1 (stereo not given) | inactive: -0.12% |
| ClCCSc1nnc(-c2cccnc2)o1 | inactive: -0.17% |
| O=[N+]([O-])c1cc([N+](=O)[O-])c(-c2ccn[nH]2)s1 | inactive: -0.3% |
| CC(C)NC(=O)NP(=O)(Oc1ccccc1)Oc1ccccc1 | inactive: -0.07% |
| CCN(CC)C(=S)SC(NC=O)C(Cl)(Cl)Cl (stereo not given) | inactive: -0.37% |
| Cc1ccc2nc3c(c(C)c2c1)CC(C(Cl)Cl)S3 (stereo not given) | inactive: -0.11% |
| COc1ccc(N/C(=N/P(=O)(N2CCOCC2)N2CCOCC2)N2CCOCC2)cc1 | inactive: 0.12% |
| Cc1c2c(nc3ccccc13)SC(C(Cl)Cl)C2 (stereo not given) | inactive: -0.35% |
| Cc1cc(=O)[nH]c(N[N+](=O)[O-])n1 | inactive: -0.19% |
| O=C(OC1CN2CCC1CC2)C12CC3CC(CC(C3)C1)C2 (stereo not given) | inactive: 0.05% |
| COc1ccc2nc(NP(=O)(c3ccccc3)c3ccccc3)sc2c1 | inactive: -0.65% |
